## Measured affinities in a library of Ab-95 light chain variants

All variants were tested on one target, the spike HR2 peptide PDVDLGDISGINAS (SARS-CoV-2).

Parent: Ab-95, a human scFv built as VH, a 15-residue (Gly4Ser)3 linker, VL. Only the CDRs of the light chain vary.
VH: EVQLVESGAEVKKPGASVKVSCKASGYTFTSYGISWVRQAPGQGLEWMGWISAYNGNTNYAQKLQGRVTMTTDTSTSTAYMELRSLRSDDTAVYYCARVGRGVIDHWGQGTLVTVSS
VL: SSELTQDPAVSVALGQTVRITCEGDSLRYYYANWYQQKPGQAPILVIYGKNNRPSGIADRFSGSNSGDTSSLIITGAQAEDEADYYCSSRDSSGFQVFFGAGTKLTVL

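The parent was found by panning a naive human phage display library on the peptide. The library (AAYL52) carries one to three amino acid substitutions per variant, with no insertions or deletions. Affinity was read by AlphaSeq, a pooled yeast mating assay with surface-displayed partners. Pairs that bind mate more often; barcode pairs of the diploids are counted by sequencing. Read counts were normalised to the haploid input and turned into Kd by a linear fit to BCL2-family pairs of known affinity, for each replicate. Each pool was mated in three replicate cultures.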

Changes read parent residue, position, new residue, counted from the first residue of the VL shown.
Numbers give log10(Kd / nM), so 0 is 1 nM and 3 is 1 µM. Smaller is tighter.
Averages over replicates are reported, and they cover detected replicates only.
"nd" means that the variant was in the library but no mating with the target was seen in any replicate; the authors take this as a sign of poor binding, and no number exists.
Parent in this assay: reference entry 2.31, copy in this library 2.25.

changes	mean, log10 nM	replicates with signal
D25M Y30M S88L	4.12	3/3
A32S S88M F95G	2.65	3/3
D25I S88Y S93M	nd	0/3
Y29Q R90F Q96I	2.31	3/3
S26D N33K N51R	3.26	1/3
E23N S55M G94I	nd	0/3
Y31F S88I G94H	3.72	2/3
R28I N52M F98E	4.04	2/3
E23L R90H S92C	5.48	1/3
Y29A S88Y S92P	2.61	2/3
D25Q V97Y F98Y	2.51	3/3
S26E D91T F95L	5.20	1/3
K50M S55V F98K	3.13	3/3
E23S N51P P54G	4.34	1/3
N33R R53P D91A	3.32	3/3
S55D S92F G94Y	4.55	1/3
L27W F95A Q96L	nd	0/3
N51I R90K V97P	nd	0/3
Y29W S55C R90Y	3.59	3/3
E23F A32F D91M	3.87	3/3
S26E N52A F95H	nd	0/3
N33S F95Y F98Y	2.73	3/3
S26M F98T	4.15	3/3
A32Q N51H S93Q	2.67	3/3

Second part, the sequence after the result:

mean, log10 nM	replicates with signal	changes
3.58	3/3	Y29F R90Q Q96H
4.02	2/3	G24A P54M S89H
3.75	2/3	E23H L27F F95L
4.43	2/3	D25C S26K G49L
4.23	3/3	K50W D91L Q96F
1.95	3/3	L27V Y30T S55Y
1.87	3/3	D25H Y30T S88Q
3.53	1/3	S88W R90M S93T
nd	0/3	S89P S92K F98H
2.42	3/3	Y31P N51K
1.88	3/3	D25Y Y30E G94D
3.86	1/3	G49V S55D R90Y
4.04	3/3	S93G Q96I V97D
2.40	3/3	Y31P A32G S88C
3.84	2/3	N51M R53K S93D
3.13	3/3	E23Q Y31W G94T
3.55	3/3	A32P K50F P54D
nd	0/3	S26K N51E S89G
3.63	2/3	L27Y R53F S92C
3.26	1/3	R28Y K50C S88A
2.30	3/3	D25S S55D S88G
2.42	3/3	G24K N51A N52H
2.53	3/3	D25F R28F Y31P
3.17	1/3	L27V N52A S55K

Picked from the list: the 8 lowest averages where every replicate gave a value.

| changes | mean, log10 nM | replicates with signal |
|---|---|---|
| D25H Y30T S88Q | 1.87 | 3/3 |
| D25Y Y30E G94D | 1.88 | 3/3 |
| L27V Y30T S55Y | 1.95 | 3/3 |
| D25S S55D S88G | 2.30 | 3/3 |
| Y29Q R90F Q96I | 2.31 | 3/3 |
| Y31P A32G S88C | 2.40 | 3/3 |
| Y31P N51K | 2.42 | 3/3 |
| G24K N51A N52H | 2.42 | 3/3 |

As a blank, each scFv also met three strains without target: over library AAYL52, 28% of these pairings were detected, typically at 3.91 and seldom below 2.90.

Data: MIT Lincoln Laboratory AlphaSeq set, Engelhart et al. 2022, doi:10.1038/s41597-022-01779-4, as distributed in FLAb.